Reference: patent US9617304B2, “Pharmaceutical composition containing an endocytic motif and protein transduction domains for preventing or treating cancer” (Korea Research Institute Of Bioscience And Biotechnology, priority 2011, dated 2017)

Test system: COS-7 cells
Assay: Endocytosis of Tac chimeric proteins expressed in COS-7 cells, fluorescence microscopy
Type: cell-based
Conditions: COS-7, 4° C. to 37° C.
Experimental: Each of plasmid DNAs encoding Tac chimeric proteins illustrated in FIG. 2 was expressed in COS-7 cell line to induce endocytosis. To quantify endocytosis percentage, the following method was used. First, plasmid DNA was transfected into COS-7 cell line, and next day, cells were suspended in DMED supplemented with 10% FBS, and seeded onto an 8-well slide glass (Thermo, 154534) to 50% confluency. Next day, to block endocytosis, cells were transferred at 4° C. and left for 30 minutes. Anti-Tac (BD BIOSCIENCES, 347640) antibody was diluted in DMEM supplemented with 10% FBS at a ratio of 1:10, and treated at 4° C. for 30 minutes. The cells were washed with medium three times. […] Next day, the sample was examined by fluorescence microscopy (Olympus IX2-UCB). […] To quantify endocytosis of Tac chimeric proteins expressed in COS-7 cells over time, the following Equation was used. […] As such, green fluorescence intensity indicates the amount of cell surface Tac, and red fluorescence intensity signifies those of endocytosed Tac plus partial cell surface Tac. […] Partially detected surface Tac by anti-mouse IgG-ALEXA FLUOR 568 was measured by comparing fluorescence intensity between green and red at 0 min in which no endocytosis occurred. Red fluorescence intensity was 0.429-fold or green fluorescence intensity at 0 min, which was defined as α. […]

B1: Tac ECD: extracellular domain of Tac (CD25) protein; itself does not induce endocytosis (protein, UniProt P01589 22-240, looked up)
extracellular domain: ELCDDDPPEIPHATFKAMAYKEGTMLNCECKRGFRRIKSGSLYMLCTGNSSHSSWDNQCQCTSSATRNTTKQVTPQPEEQKERKTTEMQSPMQPVDQASLPGHCREPPPWENEATERIYHFVVGQMVYYQCVQGYRALHRGPAESVCKMTHGKTRWTQPQLICTGEMETSQFPGEEKPQASPEGRPESETSCLVTTTDFQIQTEMAATMETSIFTTEYQ
modifications: extracellular domain
endocytosis of the chimeric protein: not observed
